Binding of CDR-mutated scFvs to a peptide of the spike HR2 region

From the AlphaSeq antibody data of Li et al. 2023 (doi:10.1038/s41467-023-39022-2), copy in the FLAb collection.

Target: peptide PDVDLGDISGINAS, taken from heptad repeat 2 (HR2) of SARS-CoV-2 spike.

Parent scFv Ab-14: VH joined to VL by the linker GGGGSGGGGSGGGGS. Changes lie in the heavy chain CDRs alone.
VH: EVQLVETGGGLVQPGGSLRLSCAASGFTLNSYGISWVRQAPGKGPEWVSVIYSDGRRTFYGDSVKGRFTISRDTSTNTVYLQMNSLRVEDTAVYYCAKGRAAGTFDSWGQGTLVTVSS
VL: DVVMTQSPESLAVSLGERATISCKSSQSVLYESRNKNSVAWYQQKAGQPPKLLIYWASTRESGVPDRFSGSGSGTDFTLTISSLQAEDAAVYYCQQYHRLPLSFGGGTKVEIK

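Phage display of a naive human antibody library on the peptide gave the parent. This is the validation round: designs drawn from the data on random variants, tested in the same kind of assay. Their group label is 14H_En_Gen (En: ensemble of fine-tuned language models; Gen: genetic algorithm). The assay is AlphaSeq: two haploid yeast populations carry antibody and antigen on their surface. Binding brings cells together so that they mate, and sequencing counts the barcode pairs among the diploids. A regression on co-assayed BCL2-family reference pairs converts the normalised counts of each replicate to an apparent Kd. There are six technical replicates.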

The parent's heavy chain CDRs are GFTLNSYGIS, VIYSDGRRTFYGDSVK, GRAAGTFDS; each variant's own CDRs replace them letter for letter. Numbers give log10(Kd / nM), so 0 is 1 nM and 3 is 1 µM. Smaller is tighter. The mean shown is taken over the replicates in which the pair was detected. "nd" means that the variant was in the library but no mating with the target was seen in that replicate; the authors take this as a sign of poor binding, and no number exists. The authors' rule: three or more of the six replicates give a measured affinity, fewer mean a poor binder. Background: pairings of all heavy chain designs with three empty control strains gave a value in 1% of cases (median 2.08, 5th percentile 0.84). Values in that range, when seen in few replicates, are hard to tell from nonspecific mating. Also given: how often the same scFv was detected with the empty control strains, with their mean in brackets. Values of this round are not directly comparable with the first-round values of the same sequences.

| CDR-H1 | CDR-H2 | CDR-H3 | log10 Kd (nM) by replicate | log10 Kd (nM), mean | signal with controls |
|---|---|---|---|---|---|
| GFDLNEYGIS | VIYADGKRTAYADNVK | GGVAGTFDV | 0.95 / 1.40 / 1.45 / 0.91 / 1.61 / 1.44 | 1.29 | 2/18 (2.11) |
| GFDLNEYGIS | VIYADGMRTFYADSVK | GTNAGTFDL | -0.43 / -0.28 / -0.53 / -0.83 / -0.68 / -0.57 | -0.55 | 0/18 |
| GFDLNEYGIS | VIYADGMRTYYADSVK | GANAGTFDV | -0.73 / -0.80 / -0.98 / -0.79 / -1.08 / -0.01 | -0.73 | 0/18 |
| GFDLNEYGIS | VIYADGKRTVYADSVK | GQVAGTFDV | -0.61 / -0.74 / -0.49 / -0.76 / -0.72 / -0.32 | -0.61 | 0/18 |
| GFDLNEYGIS | VIYADGMRTAYADDVK | GENAGTFDQ | -0.14 / -0.05 / -0.49 / -0.25 / -0.22 / -0.30 | -0.24 | 1/18 (3.88) |
| GFDLDEYGIS | VIYADGKRTAYADSVK | GETAGTFDM | -0.30 / -0.74 / -0.40 / -0.42 / -0.59 / -0.26 | -0.45 | 0/18 |
| GFDLNEYGIS | VIYADGMRTYYADSVK | GNTAGTFDI | 0.09 / -0.82 / -0.09 / 0.44 / -0.78 / -0.23 | -0.23 | 0/18 |
| GFDLNEYGIS | VIYADGRRTAYSDSVK | GETAGTFDL | -0.31 / -0.38 / -0.15 / 0.29 / -0.21 / 0.28 | -0.08 | 0/18 |
| GFDLNEYGIS | VIYADGMRTAYIDSVK | GNVAGTFDI | -0.64 / -0.58 / -0.56 / -0.74 / -0.64 / -0.43 | -0.60 | 1/18 (3.24) |
| GFDLDEYGIS | VIYADGKRTAYADDVK | GGNAGTFDV | 0.77 / 0.85 / nd / 0.44 / 0.30 / 0.45 | 0.56 | 0/18 |
| GFDLDEYGIS | VIYADGSRTAYADSVK | GTNAGTFDV | 0.18 / -0.05 / 0.41 / 0.18 / 0.37 / 0.74 | 0.31 | 1/18 (0.94) |
| GFDLNEYGIS | VIYADGKRTFYADSVK | GNQAGTFDI | 0.02 / -0.44 / -0.68 / -0.51 / -0.60 / -0.30 | -0.42 | 0/18 |
| GFDLNEYGIS | VIYADGMRTAYADNVK | GETAGTFDM | -0.21 / -0.33 / -0.31 / -0.66 / -0.64 / -0.49 | -0.44 | 0/18 |
| GFDLDEYGIS | VIYADGVRTAYADSVK | GNTAGTFDQ | 0.48 / 0.19 / -0.25 / 0.27 / -0.55 / 0.18 | 0.05 | 0/18 |
| GFDLNEYGIS | VIYADGMRKAYSDSVK | GNVAGTFDQ | -0.23 / -0.48 / -0.70 / 0.34 / -0.04 / -0.43 | -0.26 | 0/18 |
| GFDLNEYGIS | VIYADGQRTAYTDSVK | GNQAGTFDI | -0.06 / -0.28 / -0.61 / -0.50 / -0.15 / -0.43 | -0.34 | 0/18 |
| GFDLDEYGIS | VIYADGVRTAYADSVK | GETAGTFDT | -0.83 / -0.07 / -1.23 / -0.54 / -1.98 / 0.20 | -0.74 | 0/18 |
| GFDLDEYGIS | VIYADGMRTAYSDSVK | GENAGTFDL | -0.56 / -0.47 / -0.62 / -1.14 / -0.93 / -0.67 | -0.73 | 1/18 (0.72) |
| GFDLNEYGIS | VIYADGMRQAYADSVK | GNVAGTFDQ | 0.32 / 0.77 / -0.15 / 1.28 / 0.41 / nd | 0.53 | 0/18 |
| GFDLNEYGIS | VIYADGMRTSYADSVK | GEVAGTFDM | 0.79 / 0.46 / -0.02 / 0.15 / 0.56 / 0.45 | 0.40 | 1/18 (2.60) |
| GFDLNEYGIS | VIYADGMRTAYSDSVK | GKNAGTFDL | -0.43 / -0.51 / -0.58 / -0.69 / -0.53 / -0.34 | -0.51 | 0/18 |
| GFDLNEYGIS | VIYADGTRTAYADSVK | GQNAGTFDV | 1.27 / -0.84 / 0.44 / -0.15 / nd / 0.07 | 0.16 | 0/18 |
| GFDLNEYGIS | VIYADGKRTAYADSVK | GNVGGTFDV | -0.12 / -0.19 / -0.14 / -0.25 / -0.32 / -0.13 | -0.19 | 1/18 (2.01) |
| GFDLDEYGIS | VIYADGMRTAYSDDVK | GEVAGTFDL | 0.46 / 0.08 / 0.07 / -0.38 / -0.21 / 0.24 | 0.04 | 0/18 |
| GFDLEEYGIS | VIYADGQRTAYADSVK | GNVAGTFDQ | -0.12 / -0.79 / -1.12 / -0.91 / -0.40 / -0.36 | -0.62 | 0/18 |
| GFDLNEYGIS | VIYADGMRTAYADNVK | GQNAGTFDI | -0.58 / -0.90 / -0.81 / -1.12 / -1.04 / -0.83 | -0.88 | 0/18 |
| GFDLNEYGIS | VIYADGMRKFYADSVK | GNVAGTFDV | -0.51 / -0.74 / -0.60 / -0.68 / -0.16 / 0.17 | -0.42 | 0/18 |
| GFDLNEYGIS | VIYADGTRTAYADSVK | GNQAGTFDV | -0.39 / -0.83 / -1.32 / -1.27 / -0.77 / -0.68 | -0.88 | 0/18 |
| GFDLNEYGIS | VIYADGMRTAYADQVK | GNNAGTFDV | 0.04 / -0.49 / -0.49 / -0.23 / -0.65 / -0.26 | -0.35 | 0/18 |
| GFDLNEYGIS | VIYADGVRQAYADSVK | GNQAGTFDV | -1.07 / -1.32 / -1.18 / -1.13 / -0.94 / -0.79 | -1.07 | 1/18 (0.87) |
| GFDLNEYGIS | VIYADGLRTAYADDVK | GNVAGTFDV | 0.35 / -0.52 / -0.64 / -0.77 / -0.38 / -0.33 | -0.38 | 0/18 |
| GFDLDEYGIS | VIYADGMRTAYADNVK | GNNAGTFDI | -0.42 / -0.24 / -0.61 / 0.06 / 0.04 / -0.31 | -0.25 | 0/18 |
| GFDLDEYGIS | VIYADGVRTAYSDSVK | GNVAGTFDI | -0.48 / -1.05 / -0.67 / -0.80 / -0.42 / -0.40 | -0.64 | 0/18 |
| GFDLNEYGIS | VIYADGMRTAYTDSVK | GNEAGTFDV | -0.54 / -0.27 / -0.86 / -0.64 / -0.76 / -0.38 | -0.57 | 0/18 |

The 2 strongest on average among those seen in every replicate, once more:

| CDR-H1 | CDR-H2 | CDR-H3 | log10 Kd (nM) by replicate | log10 Kd (nM), mean | signal with controls |
|---|---|---|---|---|---|
| GFDLNEYGIS | VIYADGVRQAYADSVK | GNQAGTFDV | -1.07 / -1.32 / -1.18 / -1.13 / -0.94 / -0.79 | -1.07 | 1/18 (0.87) |
| GFDLNEYGIS | VIYADGMRTAYADNVK | GQNAGTFDI | -0.58 / -0.90 / -0.81 / -1.12 / -1.04 / -0.83 | -0.88 | 0/18 |